The text below walks through data of patent US20240374601A1, “METHODS AND COMPOSITIONS FOR TREATING CANCER” (Onconova Therapeutics, Inc., priority 2021, published 2024).

By UniProt entry, the sequences of proteins in these tests, tags left out. Residues count along the entry.
UniProt P07333, 20-972 limits assumed: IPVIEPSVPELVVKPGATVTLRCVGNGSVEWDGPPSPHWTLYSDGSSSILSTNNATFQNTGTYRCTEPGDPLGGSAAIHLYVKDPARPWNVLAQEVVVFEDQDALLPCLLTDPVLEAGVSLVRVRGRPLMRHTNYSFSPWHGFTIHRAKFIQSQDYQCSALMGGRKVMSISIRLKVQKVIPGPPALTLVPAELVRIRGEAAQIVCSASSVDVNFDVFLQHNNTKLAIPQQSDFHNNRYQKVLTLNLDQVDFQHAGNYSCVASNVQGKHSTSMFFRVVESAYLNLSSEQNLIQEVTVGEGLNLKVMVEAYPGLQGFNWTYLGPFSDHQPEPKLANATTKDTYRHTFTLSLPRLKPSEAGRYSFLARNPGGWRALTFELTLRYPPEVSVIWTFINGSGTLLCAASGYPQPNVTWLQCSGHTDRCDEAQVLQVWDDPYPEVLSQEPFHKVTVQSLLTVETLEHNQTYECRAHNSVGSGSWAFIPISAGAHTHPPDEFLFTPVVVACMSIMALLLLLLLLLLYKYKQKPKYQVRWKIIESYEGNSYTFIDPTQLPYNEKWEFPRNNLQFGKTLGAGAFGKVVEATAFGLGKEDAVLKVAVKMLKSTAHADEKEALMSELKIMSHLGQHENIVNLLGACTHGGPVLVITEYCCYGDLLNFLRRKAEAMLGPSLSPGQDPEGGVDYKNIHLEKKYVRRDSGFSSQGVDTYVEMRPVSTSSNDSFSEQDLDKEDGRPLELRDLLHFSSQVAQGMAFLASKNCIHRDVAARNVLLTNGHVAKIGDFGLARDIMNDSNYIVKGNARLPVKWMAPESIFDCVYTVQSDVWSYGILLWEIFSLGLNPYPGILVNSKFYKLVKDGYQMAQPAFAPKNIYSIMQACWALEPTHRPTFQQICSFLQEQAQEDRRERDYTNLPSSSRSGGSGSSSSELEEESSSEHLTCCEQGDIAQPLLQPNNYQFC

In this assay the target is CSF1R (Homo sapiens, UniProt P07333). In words: In vitro multi-kinase activity, IC50. The following applies: read-out: IC50 CSF1R. It is filed as biochemical.

The structures appear in SMILES notation.

What is called IC50 is the concentration needed to halve the response being measured. As to `CCN1CCN(Cc2ccc(Nc3ncc(F)c(-c4cc(F)c5nc(C)n(C(C)C)c5c4)n3)nc2)CC1`, the IC50 was > 10 µM.
